molecular target: Mu-type opioid receptor (Rattus norvegicus, UniProt P33535); experiment: Displacement of [3H]DAMGO from rat mu opioid receptor expressed in CHO cell membrane measured after 30 mins by liquid scintillation counting method

Going from COc1ccc2c3c1O[C@H]1[C@@]4(OC)CC[C@@]5(C[C@@H]4c4cccc(NC(=O)c6ccc(C)c(C)c6)c4)[C@@H](C2)N(CC2CC2)CC[C@]315 to CNc1cccc([C@H]2C[C@@]34CC[C@]2(OC)[C@@H]2Oc5c(OC)ccc6c5[C@@]23CCN(CC2CC2)[C@@H]4C6)c1, the Ki falls from 375 nM to 211 nM (1.8-fold).

First: COc1ccc2c3c1O[C@H]1[C@@]4(OC)CC[C@@]5(C[C@@H]4c4cccc(NCc6ccc(C(F)(F)F)cc6)c4)[C@@H](C2)N(CC2CC2)CC[C@]315
Second: COc1ccc2c3c1O[C@H]1[C@@]4(OC)CC[C@@]5(C[C@@H]4c4cccc(NCc6ccc(O)cc6)c4)[C@@H](C2)N(CC2CC2)CC[C@]315
The Ki of the first is 30-fold higher: 1580 nM for the first, 52.8 nM for the second.

Compared with COc1ccc2c3c1O[C@H]1[C@@]4(OC)CC[C@@]5(C[C@@H]4c4cccc(NCc6ccc(OC(C)=O)cc6)c4)[C@@H](C2)N(CC2CC2)CC[C@]315, COc1ccc2c3c1O[C@H]1[C@@]4(OC)CC[C@@]5(C[C@@H]4c4cccc(NCc6ccc(OCC7CC7)cc6)c4)[C@@H](C2)N(CC2CC2)CC[C@]315 is 4-fold higher in Ki: 92.2 nM for the first, 368 nM for the second. The first binds more tightly here.

Compared with COc1ccc2c3c1O[C@H]1[C@@]4(OC)CC[C@@]5(C[C@@H]4c4cccc(NCc6ccc(Cl)nc6)c4)[C@@H](C2)N(CC2CC2)CC[C@]315, COc1cccc(CNc2cccc([C@H]3C[C@@]45CC[C@]3(OC)[C@@H]3Oc6c(OC)ccc7c6[C@@]34CCN(CC3CC3)[C@@H]5C7)c2)c1 is 6.3-fold lower in Ki: 237 nM for the first, 37.6 nM for the second. The second binds more tightly here.

Going from COc1ccc2c3c1O[C@H]1[C@@]4(OC)CC[C@@]5(C[C@@H]4c4cccc(NCC6CCC6)c4)[C@@H](C2)N(CC2CC2)CC[C@]315 to COc1ccc2c3c1O[C@H]1[C@@]4(OC)CC[C@@]5(C[C@@H]4c4cccc(NC(=O)C6CC6)c4)[C@@H](C2)N(CC2CC2)CC[C@]315, the Ki rises from 38.8 nM to 143 nM (3.7-fold). The first binds more tightly here.

Work on COc1ccc2c3c1O[C@H]1[C@@]4(OC)CC[C@@]5(C[C@@H]4c4cccc(NCc6ccc(OCC7CCC7)cc6)c4)[C@@H](C2)N(CC2CC2)CC[C@]315 yielded a Ki of 41.4 nM.

molecular target: Delta-type opioid receptor (Rattus norvegicus, UniProt P33533); experiment: Displacement of [3H]DPDPE from rat delta opioid receptor expressed in CHO cell membrane measured after 30 mins by liquid scintillation counting method

Going from COc1ccc2c3c1O[C@H]1[C@@]4(OC)CC[C@@]5(C[C@@H]4c4cccc(NC(=O)c6ccc(C)c(C)c6)c4)[C@@H](C2)N(CC2CC2)CC[C@]315 to CNc1cccc([C@H]2C[C@@]34CC[C@]2(OC)[C@@H]2Oc5c(OC)ccc6c5[C@@]23CCN(CC2CC2)[C@@H]4C6)c1, the Ki falls from 1370 nM to 179 nM (7.7-fold).

First: COc1ccc2c3c1O[C@H]1[C@@]4(OC)CC[C@@]5(C[C@@H]4c4cccc(NCc6ccc(C(F)(F)F)cc6)c4)[C@@H](C2)N(CC2CC2)CC[C@]315
Second: COc1ccc2c3c1O[C@H]1[C@@]4(OC)CC[C@@]5(C[C@@H]4c4cccc(NCc6ccc(O)cc6)c4)[C@@H](C2)N(CC2CC2)CC[C@]315
The Ki of the first is higher: over 5000 nM for the first, 1100 nM for the second. The second binds more tightly here.

First: COc1ccc2c3c1O[C@H]1[C@@]4(OC)CC[C@@]5(C[C@@H]4c4cccc(NCc6ccc(OC(C)=O)cc6)c4)[C@@H](C2)N(CC2CC2)CC[C@]315
Second: COc1ccc2c3c1O[C@H]1[C@@]4(OC)CC[C@@]5(C[C@@H]4c4cccc(NCc6ccc(OCC7CC7)cc6)c4)[C@@H](C2)N(CC2CC2)CC[C@]315
The Ki of the first is lower: 612 nM for the first, over 10000 nM for the second. The first binds more tightly here.

Going from COc1ccc2c3c1O[C@H]1[C@@]4(OC)CC[C@@]5(C[C@@H]4c4cccc(NCc6ccc(Cl)nc6)c4)[C@@H](C2)N(CC2CC2)CC[C@]315 to COc1cccc(CNc2cccc([C@H]3C[C@@]45CC[C@]3(OC)[C@@H]3Oc6c(OC)ccc7c6[C@@]34CCN(CC3CC3)[C@@H]5C7)c2)c1, the Ki rises from 268 nM to 2250 nM (8.4-fold).

COc1ccc2c3c1O[C@H]1[C@@]4(OC)CC[C@@]5(C[C@@H]4c4cccc(NCC6CCC6)c4)[C@@H](C2)N(CC2CC2)CC[C@]315 and COc1ccc2c3c1O[C@H]1[C@@]4(OC)CC[C@@]5(C[C@@H]4c4cccc(NC(=O)C6CC6)c4)[C@@H](C2)N(CC2CC2)CC[C@]315 are within 1.5-fold of each other in Ki: 624 nM for the first, 458 nM for the second.

COc1ccc2c3c1O[C@H]1[C@@]4(OC)CC[C@@]5(C[C@@H]4c4cccc(NCc6ccc(OCC7CCC7)cc6)c4)[C@@H](C2)N(CC2CC2)CC[C@]315 gave a Ki of 829 nM.

molecular target: Kappa-type opioid receptor (Homo sapiens, UniProt P41145); experiment: Displacement of [3H]U69,593 from human kappa opioid receptor expressed in CHO cell membrane measured after 30 mins by liquid scintillation counting method

Compared with COc1ccc2c3c1O[C@H]1[C@@]4(OC)CC[C@@]5(C[C@@H]4c4cccc(NC(=O)c6ccc(C)c(C)c6)c4)[C@@H](C2)N(CC2CC2)CC[C@]315, CNc1cccc([C@H]2C[C@@]34CC[C@]2(OC)[C@@H]2Oc5c(OC)ccc6c5[C@@]23CCN(CC2CC2)[C@@H]4C6)c1 is 1.6-fold higher in Ki: 37.4 nM for the first, 61 nM for the second. The first binds more tightly here.

Going from COc1ccc2c3c1O[C@H]1[C@@]4(OC)CC[C@@]5(C[C@@H]4c4cccc(NCc6ccc(C(F)(F)F)cc6)c4)[C@@H](C2)N(CC2CC2)CC[C@]315 to COc1ccc2c3c1O[C@H]1[C@@]4(OC)CC[C@@]5(C[C@@H]4c4cccc(NCc6ccc(O)cc6)c4)[C@@H](C2)N(CC2CC2)CC[C@]315, the Ki falls from 51 nM to 16.1 nM (3.2-fold).

Going from COc1ccc2c3c1O[C@H]1[C@@]4(OC)CC[C@@]5(C[C@@H]4c4cccc(NCc6ccc(OC(C)=O)cc6)c4)[C@@H](C2)N(CC2CC2)CC[C@]315 to COc1ccc2c3c1O[C@H]1[C@@]4(OC)CC[C@@]5(C[C@@H]4c4cccc(NCc6ccc(OCC7CC7)cc6)c4)[C@@H](C2)N(CC2CC2)CC[C@]315, the Ki rises from 13.9 nM to 200 nM (14-fold).

COc1ccc2c3c1O[C@H]1[C@@]4(OC)CC[C@@]5(C[C@@H]4c4cccc(NCc6ccc(Cl)nc6)c4)[C@@H](C2)N(CC2CC2)CC[C@]315 and COc1cccc(CNc2cccc([C@H]3C[C@@]45CC[C@]3(OC)[C@@H]3Oc6c(OC)ccc7c6[C@@]34CCN(CC3CC3)[C@@H]5C7)c2)c1 are within 1.5-fold of each other in Ki: 8 nM for the first, 11.7 nM for the second.

First: COc1ccc2c3c1O[C@H]1[C@@]4(OC)CC[C@@]5(C[C@@H]4c4cccc(NCC6CCC6)c4)[C@@H](C2)N(CC2CC2)CC[C@]315
Second: COc1ccc2c3c1O[C@H]1[C@@]4(OC)CC[C@@]5(C[C@@H]4c4cccc(NC(=O)C6CC6)c4)[C@@H](C2)N(CC2CC2)CC[C@]315
The Ki of the first is 34-fold lower: 7.2 nM for the first, 243 nM for the second.

COc1ccc2c3c1O[C@H]1[C@@]4(OC)CC[C@@]5(C[C@@H]4c4cccc(NCc6ccc(OCC7CCC7)cc6)c4)[C@@H](C2)N(CC2CC2)CC[C@]315 showed a Ki of 224 nM.

Source: ChEMBL document CHEMBL4840326, “Discovery of an M-Substituted N-Cyclopropylmethyl-7α-phenyl-6,14-endoethanotetrahydronorthebaine as a Selective, Potent, and Orally Active κ-Opioid Receptor Agonist with an Improved Central Nervous System Safety Profile” (2021)
